{"source": "patent US20070161107A1", "about": "“Differentiation of human embryonic stem cells to cardiomyocytes” (priority 2003, published 2007)", "test_system": "hES cells", "test": "Direct addition of growth factors to hES cells, differentiation", "format": "cell-based, human", "source_text": "Before hES cells can be applied clinically it is important to control their growth and differentiation. Both embryonic and adult stem cells from the mouse apparently respond to cues within the mouse embryo to differentiate to (virtually) all somatic tissues (reviewed in 25). If these cues and the signal transduction pathways they activate can be identified, this knowledge can be utilized in controlling differentiation of stem cells in culture and in vivo. Here, we have identified (visceral-) endoderm as a cellular source of signals that result in human ES cells differentiating to cardiomyocytes with characteristics of fetal ventricular, atrial or pacemaker cells. This is the first time that inductive cellular sources of signals have been identified that result in human ES cells forming cardiomyocytes, although various studies have shown that cells with endodermlike properties have this effect on mouse ES and EC cells (1, 3, 26-28). […] This contrasts with other reports (11-13) where the hES cells do form embryoid bodies containing cardiomyocytes. […] Endoderm in the mouse embryo expresses BMP2 (31) and inhibitors of wnt signaling (32, 33). […] We therefore think it unlikely that activation of the BMP signaling pathway is the primary event initiated by END-2/hES cell co-culture. […]"}
{"molecule": "BMP2: BMP signalling factor expressed by mouse embryo endoderm, added directly to hES cells (protein, UniProt P12643 283-396, looked up) Bone morphogenetic protein 2: QAKHKQRKRLKSSCKRHPLYVDFSDVGWNDWIVAPPGYHAFYCHGECPFPLADHLNSTNHAIVQTLVNSVNSKIPKACCVPTELSAISMLYLDENEKVVLKNYQDMVVEGCGCR", "values": [{"measurement": "cardiomyocyte differentiation of hES cells", "value": "did not result in cardiomyocyte differentiation"}, {"measurement": "lineage formed by hES cells", "setting": "data not shown", "value": "appeared to form extraembryonic endoderm"}]}
